This is an account of results in patent US6723733B2, “Sulfonamide and carbamide derivatives of 6(5H)phenanthridinones and their uses” (Guilford Pharmaceuticals, Inc., priority 2000, dated 2004).

Amino acid sequences for entries named in this document (tags omitted).
UniProt P09874, whole entry: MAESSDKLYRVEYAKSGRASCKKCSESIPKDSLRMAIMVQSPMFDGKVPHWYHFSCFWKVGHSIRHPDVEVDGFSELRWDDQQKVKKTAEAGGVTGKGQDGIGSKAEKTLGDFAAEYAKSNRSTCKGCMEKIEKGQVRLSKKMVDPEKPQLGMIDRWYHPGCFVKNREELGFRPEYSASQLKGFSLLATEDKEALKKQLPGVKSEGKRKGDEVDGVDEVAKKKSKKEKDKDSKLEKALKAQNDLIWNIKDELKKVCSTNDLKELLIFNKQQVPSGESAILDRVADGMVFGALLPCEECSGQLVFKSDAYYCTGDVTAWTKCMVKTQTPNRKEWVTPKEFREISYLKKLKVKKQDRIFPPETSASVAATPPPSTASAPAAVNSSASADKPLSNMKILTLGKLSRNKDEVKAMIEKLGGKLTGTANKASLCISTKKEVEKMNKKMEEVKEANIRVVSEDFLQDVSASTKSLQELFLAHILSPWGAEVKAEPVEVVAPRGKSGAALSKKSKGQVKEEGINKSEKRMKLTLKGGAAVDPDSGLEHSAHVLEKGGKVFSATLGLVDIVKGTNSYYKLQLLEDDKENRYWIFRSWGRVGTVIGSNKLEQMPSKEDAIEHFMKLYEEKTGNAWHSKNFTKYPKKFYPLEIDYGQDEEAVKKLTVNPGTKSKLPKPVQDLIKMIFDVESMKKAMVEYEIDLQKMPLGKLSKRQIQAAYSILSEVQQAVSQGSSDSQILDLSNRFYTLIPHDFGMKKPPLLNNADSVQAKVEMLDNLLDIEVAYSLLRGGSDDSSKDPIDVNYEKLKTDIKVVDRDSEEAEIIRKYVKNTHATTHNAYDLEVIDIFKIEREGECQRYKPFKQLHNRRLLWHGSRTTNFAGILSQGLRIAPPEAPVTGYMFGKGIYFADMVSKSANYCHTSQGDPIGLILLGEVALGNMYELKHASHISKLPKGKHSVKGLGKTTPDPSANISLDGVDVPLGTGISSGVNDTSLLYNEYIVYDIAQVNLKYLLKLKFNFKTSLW

Broadly, the IC50 is the concentration that gives 50% inhibition.

The target of the assay is purified recombinant human PARP (Homo sapiens, UniProt P09874). Description: PARP enzyme assay (IC50), [3H]NAD incorporation. In kind it is biochemical. The conditions noted are these: approximate IC50 values; 25° C., 15 minutes.

SMILES strings stand for the structures.

With `O=C(N[C@@H](CO)C(=O)O)c1ccc2c(c1)[nH]c(=O)c1ccccc12`, the IC50 worked out at 20 nM.

For `Cc1cccc2c(=O)[nH]c3cc(C(F)(F)F)c(NC(=O)c4ccc(F)cc4)cc3c12`, the IC50 was found to be 1270 nM.
